We go through six compounds from patent publication US20170296682A1, “DERIVATIVES OF DIBENZOTHIOPHENE IMAGING OF alpha-7 NICOTINIC ACETYLCHOLINE RECEPTORS” (THE JOHNS HOPKINS UNIVERSITY, priority 2015, published 2017).

Chains of the proteins cited; added tags and fusions are not shown. Residues count along the entry.
UniProt P49582, 23-502: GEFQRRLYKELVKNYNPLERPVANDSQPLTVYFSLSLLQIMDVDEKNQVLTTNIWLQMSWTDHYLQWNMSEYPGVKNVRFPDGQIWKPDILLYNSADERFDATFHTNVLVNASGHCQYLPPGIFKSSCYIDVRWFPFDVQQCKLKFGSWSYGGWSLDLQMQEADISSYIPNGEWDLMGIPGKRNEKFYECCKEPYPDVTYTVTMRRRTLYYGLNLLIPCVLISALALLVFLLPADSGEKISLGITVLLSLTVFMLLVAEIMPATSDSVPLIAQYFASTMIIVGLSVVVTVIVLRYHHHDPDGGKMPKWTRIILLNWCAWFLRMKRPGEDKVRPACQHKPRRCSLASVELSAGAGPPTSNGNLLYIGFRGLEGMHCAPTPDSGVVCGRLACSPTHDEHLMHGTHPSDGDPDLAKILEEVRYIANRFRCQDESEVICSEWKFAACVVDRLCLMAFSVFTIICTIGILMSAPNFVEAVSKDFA

Test [1] has as its system α7-nAChR. Conditions: in vivo; cited from earlier work.
The target in test [2] is T1, α7-nAChR (Mus musculus, UniProt P49582). Particulars: taken from references or estimated as VT/VND -1 or (cortex uptake/cerebellum uptake) -1; cited from earlier work.
The target in test [3] is T1, α7-nAChR. Particulars: subcutaneous blocking dose, 180 min, superior colliculus.

For `[11CH3]N1CC2CN(c3ccc(-c4ccccc4)nn3)CC2C1` (stereo not drawn), in test [1], the “BPND in cortex, Monkey or Pig” value was 0.3.

On to `[11CH3]N1CC2CN(c3ccc4c(c3)C(=O)C3C=CC=CC3O4)CC2C1` (stereo not drawn), for which, in test [2], the “BPND in cortex, Mice” value is 0.6-0.7.

With `[11CH3]c1ccc(OC(=O)N2CCN3CCC2CC3)cc1`, in test [1], the “BPND in cortex, Monkey or Pig” value is recorded as 0.6.

Consider `[11CH3]n1cccc1-c1nnc(N2CCN3CCC2CC3)o1`, for which the “BPND in cortex, Monkey or Pig” value in test [1] is given as ~1.

With `[18F]c1ccc(-c2nnc(N3CCN4CCC3CC4)o2)cc1`, in test [1], the “BPND in cortex, Monkey or Pig” value is 0.8.

For the compound `O=C(Oc1ccc(Br)cc1)N1CCN2CCC1CC2` [Compound 1, reference compound], the “inhibition of [125I]14 binding” value in test [3] is on record as “significantly inhibited”.
